Measured values from US20090209615A1 (published 2009).

System: C57BL/6J mice, MCA occlusion/reperfusion
Assay: Transient focal cerebral ischemia (MCA occlusion/reperfusion): infarct volume and neurological deficits
Conditions: mouse, in vivo

O=S(=O)(CC1CS1)c1ccc(Oc2ccccc2)cc1 (stereo not shown) [Compound 1, (4-Phenoxyphenylsulfonyl)methylthiirane]
window of therapeutic intervention after insult: 6 h
